For 1 molecule, IC50 results are on record in US7598377B2, “Inhibition of phosphoinositide 3-kinase β” (AstraZeneca AB, priority 2002, dated 2009).

Chains of the proteins cited; added tags and fusions are not shown. Lines headed by an entry give the natural chain unless they say otherwise; changes in a name come on top.
UniProt P42338: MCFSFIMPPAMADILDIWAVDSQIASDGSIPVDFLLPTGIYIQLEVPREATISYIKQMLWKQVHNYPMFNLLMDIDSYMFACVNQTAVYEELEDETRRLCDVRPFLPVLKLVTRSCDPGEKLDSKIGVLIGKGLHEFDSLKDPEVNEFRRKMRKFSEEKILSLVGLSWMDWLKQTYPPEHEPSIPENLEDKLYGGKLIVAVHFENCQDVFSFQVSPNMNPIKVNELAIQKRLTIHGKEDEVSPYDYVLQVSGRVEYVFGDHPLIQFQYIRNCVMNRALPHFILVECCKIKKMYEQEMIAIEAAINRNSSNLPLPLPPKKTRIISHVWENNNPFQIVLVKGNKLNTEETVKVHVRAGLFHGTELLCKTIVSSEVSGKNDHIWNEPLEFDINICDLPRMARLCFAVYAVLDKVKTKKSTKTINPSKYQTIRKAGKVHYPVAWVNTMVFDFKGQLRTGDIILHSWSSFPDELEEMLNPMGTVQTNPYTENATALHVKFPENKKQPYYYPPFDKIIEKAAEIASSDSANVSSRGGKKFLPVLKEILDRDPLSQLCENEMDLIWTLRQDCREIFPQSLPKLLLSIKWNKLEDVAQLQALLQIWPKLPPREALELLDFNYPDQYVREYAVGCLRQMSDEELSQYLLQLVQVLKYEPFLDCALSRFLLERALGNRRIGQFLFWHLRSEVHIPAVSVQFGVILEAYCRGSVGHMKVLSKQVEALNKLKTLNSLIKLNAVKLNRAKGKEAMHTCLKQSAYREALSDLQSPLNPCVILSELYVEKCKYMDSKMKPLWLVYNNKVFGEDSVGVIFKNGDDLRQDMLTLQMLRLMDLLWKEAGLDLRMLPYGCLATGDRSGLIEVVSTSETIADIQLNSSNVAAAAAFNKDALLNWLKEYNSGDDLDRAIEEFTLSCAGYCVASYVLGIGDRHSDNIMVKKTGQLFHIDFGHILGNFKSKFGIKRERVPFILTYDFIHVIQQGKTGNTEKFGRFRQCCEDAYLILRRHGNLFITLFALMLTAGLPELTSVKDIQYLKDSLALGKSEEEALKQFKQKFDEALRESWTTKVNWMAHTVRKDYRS

SMILES strings stand for the structures. pIC50: −log10 of the molar value.

This experiment concerns the target T1, p110β-PI3K (Homo sapiens, UniProt P42338).
T1 construct: The α and β isoforms of the PI3K were immunoprecipitated from a platelet lysate; from tissue; host or cells: washed platelets (lysate, immunoprecipitated with anti-p110β antibody)
Briefly: In vitro enzyme assay, p110β immunoprecipitated from platelet lysate (Biological Example 1). Particulars: read-out: IC50 against PI 3-kinase β. The class given is biochemical. The method, then: To examine the inhibitory activity of TGX-221 against PI 3-kinase α, β or δ isoforms, or PI4 kinase, washed platelets were lysed with 1× lysis buffer (10 mM Tris, pH 7.6, 10 mM PMSF, 5 mM EDTA, 2 mM benzamidine, 0.1% Triton X-100) and whole cell lysates were clarified by centrifugation at 15,000×g for 5 minutes. For each immunoprecipitation, 1 mg of lysate was incubated with an anti-p110α (1 μg), anti-p110β (1 μg), anti-p110δ (1 μg) or anti-PI4 kinase antibody (2-5 μg) and 50 μl of a 50% slurry of protein A beads overnight at 4° C. For PI 3-kinase assays, the protein A beads-immune complexes were washed twice with lysis buffer and twice more with 1× PI 3-kinase assay buffer (20 mM Hepes, pH 7.2, 5 mM MgCl2, 0.25 mM EDTA) prior to incubating 25 μl of the immunoprecipitated p110 α or β isoforms with 40 μl of the PI 3-kinase substrate, phosphatidylinositol (PtdIns), 10 μl ATP mix (0.5 μl γ^32 P-ATP+0.5 μl 10 nM ATP), 10 μl 10× kinase buffer, 15 μl milliQ H2O and 1 μl of TGX-221 (0-10 μM) for 60 minutes at room temperature. […] The lipid spots were then removed from the TLC plate and the level of radioactivity quantified to accurately determine the level of PtdIns(3)P/PtdIns(4)P production.

What is called pIC50 is −log10 of the IC50, conventionally taken in molar units. Regarding `Cc1cc(C(C)Nc2ccccc2)c2nc(N3CCOCC3)cc(=O)n2c1` (racemic) [TGX-221, (±)-7-methyl-2-morpholin-4-yl-9-(1-phenylaminoethyl)-pyrido[1,2-a]pyrimidin-4-one], the pIC50 is 8.30.
